IC50 (inhibition of pNPA hydrolysis, colorimetric assay) data for one substance are collected here from patent US20220283175A1, “METALLOENZYMES FOR BIOMOLECULAR RECOGNITION OF N-TERMINAL MODIFIED PEPTIDES” (Encodia, Inc., priority 2020, published 2022).

Experiment in all cases: cell-based or functional assay
Test [1] concerns the target M64-AAEIR.
Test [2] concerns the target M64-DAEIR.
Test [3] deals with M64-EAEIR.
Test [4] addresses M64-FAEIR.
The target in test [5] is M64-LAEIR.

Consider “wild-type human carbonic anhydrase II (hCAII), SEQ ID NO: 7 (from UniProt P00918 4-259) (enzyme)”, for which the IC50 (inhibition of pNPA hydrolysis, colorimetric assay) in test [1] turned out to be 0.02 µM; in test [2], 0.089 µM; in test [3], 0.63 µM; in test [4] it was 0.018 µM; in test [5], 0.028 µM.
